Earlier results, collected in patent US7118899B2, “Detection of transmembrane potentials by optical methods” (The Regents of the University of California, priority 2001, dated 2006).

Tested on: excitable tissue
Conditions: cited from earlier work

Substance: 2,2′,4,4′,6,6′-hexanitrodiphenylamine
- kinetics of displacement currents (in words): submillisecond kinetics

Some compounds may have been tested in ways that are not shown here.
